# Only a part is listed here, and it is no random draw. Calls of active or inactive are those of the source. Rule as the data show it: active = inhibition above about 50%; inactive = the rest.
# Chains of the proteins cited; added tags and fusions are not shown. Lines headed by an entry give the natural chain unless they say otherwise; changes in a name come on top.
# UniProt O96028: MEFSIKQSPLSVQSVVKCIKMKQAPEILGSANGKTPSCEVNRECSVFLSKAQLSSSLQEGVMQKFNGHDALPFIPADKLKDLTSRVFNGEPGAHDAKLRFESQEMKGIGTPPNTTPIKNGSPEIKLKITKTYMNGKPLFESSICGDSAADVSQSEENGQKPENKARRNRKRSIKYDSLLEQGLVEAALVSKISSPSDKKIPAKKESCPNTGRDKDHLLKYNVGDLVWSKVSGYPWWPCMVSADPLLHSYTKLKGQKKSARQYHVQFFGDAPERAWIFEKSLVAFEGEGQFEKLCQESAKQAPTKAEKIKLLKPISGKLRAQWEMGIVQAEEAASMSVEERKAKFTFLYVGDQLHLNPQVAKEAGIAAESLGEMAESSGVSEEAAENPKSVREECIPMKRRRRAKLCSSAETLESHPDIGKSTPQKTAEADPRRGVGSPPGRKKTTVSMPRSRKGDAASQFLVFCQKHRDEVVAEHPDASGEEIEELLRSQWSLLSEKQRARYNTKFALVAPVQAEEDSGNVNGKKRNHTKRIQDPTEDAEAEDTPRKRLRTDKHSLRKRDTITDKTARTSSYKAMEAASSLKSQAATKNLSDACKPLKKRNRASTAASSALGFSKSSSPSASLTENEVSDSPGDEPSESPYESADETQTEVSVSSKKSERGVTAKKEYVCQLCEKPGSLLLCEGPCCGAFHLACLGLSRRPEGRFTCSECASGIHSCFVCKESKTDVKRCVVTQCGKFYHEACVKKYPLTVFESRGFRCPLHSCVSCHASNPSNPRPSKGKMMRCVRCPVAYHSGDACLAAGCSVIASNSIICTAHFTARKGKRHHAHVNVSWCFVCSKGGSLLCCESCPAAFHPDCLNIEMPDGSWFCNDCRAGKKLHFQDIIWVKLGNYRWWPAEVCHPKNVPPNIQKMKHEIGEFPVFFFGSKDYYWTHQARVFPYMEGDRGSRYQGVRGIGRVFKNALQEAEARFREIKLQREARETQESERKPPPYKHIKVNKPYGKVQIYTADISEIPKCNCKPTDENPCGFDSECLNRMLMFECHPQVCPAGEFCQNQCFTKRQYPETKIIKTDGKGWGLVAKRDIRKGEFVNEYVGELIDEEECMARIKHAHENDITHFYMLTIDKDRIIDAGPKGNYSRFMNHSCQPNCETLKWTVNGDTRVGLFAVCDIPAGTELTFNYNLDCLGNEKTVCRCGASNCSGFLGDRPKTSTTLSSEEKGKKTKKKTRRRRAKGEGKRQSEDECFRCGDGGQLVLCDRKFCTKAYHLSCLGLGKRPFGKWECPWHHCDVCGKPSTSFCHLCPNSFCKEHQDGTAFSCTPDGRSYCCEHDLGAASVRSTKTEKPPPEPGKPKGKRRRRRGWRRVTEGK
# Target: Histone-lysine N-methyltransferase NSD2 (Homo sapiens) (UniProt O96028)
# Assay: NSD2 histone methyltransferase inhibitors, primary screen, biochemical, AlphaScreen, single concentration, set 2 (AID 743445)
# Details: NSD2 peptide methylation, 120 min, at 12.5 µM, active compounds read high
row,SMILES,inhibition
1,CC(NC(=O)COC(=O)C(O)(c1ccccc1)c1ccccc1)c1ccccc1 (configuration not stated),inactive: -3.15%
2,Cc1ccccc1OP(=O)(Nc1ccccn1)Oc1ccccc1C,inactive: 20.5%
3,O=c1c2cc([N+](=O)[O-])ccc2[nH]c2c([N+](=O)[O-])cc([N+](=O)[O-])cc12,inactive: -4.19%
4,CN(C)C(=O)Oc1noc2ccccc12,inactive: -3.35%
5,COC(=O)c1cc2c(s1)N=C(c1ccccc1)N(C)P2(=O)N1CCOCC1 (configuration not stated),inactive: 14.7%
6,CC(=O)NC(SC(=S)N(CC(C)C)CC(C)C)C(Cl)(Cl)Cl (configuration not stated),inactive: 5.41%
7,Cc1ccc(OP(=O)(Nc2ccccn2)Oc2ccc(C)cc2)cc1,inactive: -2.27%
8,O=C(OC1CN2CCC1CC2)c1ccccc1 (configuration not stated),inactive: -0.823%
9,O=P1(N(CCCl)CCCl)OCCC2CCCCN21 (configuration not stated),inactive: -0.802%
10,CCNC(=S)/N=C(\N)N[N+](=O)[O-],inactive: -0.03%
11,O=C(NC1CCS(=O)(=O)C1)NP(=S)(Oc1ccccc1)Oc1ccccc1 (configuration not stated),inactive: 2.71%
12,c1ccc(-c2nn[nH]n2)c(-c2nn[nH]n2)c1,inactive: -5.05%
13,Cc1ccc(NP(=O)(Oc2cccc(C)c2)Oc2cccc(C)c2)nc1,inactive: -3.94%
14,CC(=O)Nc1ccc([As](=O)(O)O)c(O)c1,inactive: 0.481%
15,CC(=O)Nc1ccc(Oc2c([N+](=O)[O-])cc([N+](=O)[O-])cc2[N+](=O)[O-])cc1,inactive: 4.74%
16,CC(=O)c1ccc(N2CC2c2ccncc2)cc1 (configuration not stated),inactive: 7.56%
17,N#C/C(=C\c1ccc(N(CCBr)CCBr)cc1)C(N)=O,inactive: 9.27%
18,COC(=O)C1(C)COP(=O)(NCc2ccccc2)OC1 (configuration not stated),inactive: -1.05%
19,Cc1ccccc1CN(C)C(=O)COC(=O)C(O)(c1ccccc1)c1ccccc1,inactive: 0.035%
20,CCc1cc(O)c([N+](=O)[O-])c(C)c1[N+](=O)[O-],inactive: 1.39%
21,CC(C)(C)C(=O)NC(Sc1ccccc1)C(Cl)(Cl)Cl (configuration not stated),inactive: -1.55%
22,O=P1(Nc2nc3ccc(Cl)cc3s2)COc2ccccc2O1 (configuration not stated),inactive: 17.9%
23,CCOc1ccc(C2=NCC(CBr)S2)cc1 (configuration not stated),inactive: 1.61%
24,c1nnnn1CCn1cnnn1,inactive: -1.96%
25,CC(C)C(=O)NC(Sc1ccccc1)C(Cl)(Cl)Cl (configuration not stated),inactive: -2.64%
26,O=P(Nc1nccs1)(c1ccccc1)c1ccccc1,inactive: -1.47%

row,SMILES,inhibition
1,C/C(N)=N\P(=O)(OCc1ccccc1)OCc1ccccc1,inactive: 1.04%
2,C(Cc1nn[nH]n1)Cc1nn[nH]n1,inactive: -1.07%
3,Nc1ccc([As](=O)(O)c2ccc([N+](=O)[O-])cc2)cc1,inactive: -3.88%
4,O=C(OC1CN2CCC1CC2)c1cccc(Cl)c1 (configuration not stated),inactive: 1.56%
5,O=[N+]([O-])c1ccc(O)c(/C=N/Nc2ccc([N+](=O)[O-])cc2[N+](=O)[O-])c1,inactive: 8.43%
6,CC(=O)NC(SC(=S)N(C)C)C(Cl)(Cl)Cl (configuration not stated),inactive: -1.42%
7,O=[N+]([O-])c1ncn(CCn2cnc([N+](=O)[O-])n2)n1,inactive: -3.48%
8,O=P(Nc1nc2ccccc2s1)(c1ccccc1)c1ccccc1,inactive: -5.3%
9,COc1ccc(N)c([N+](=O)[O-])c1[N+](=O)[O-],inactive: 11.1%
10,Nc1ccc(CCCCOc2ccccc2)cc1,inactive: 18.1%
11,O=P(Nc1ccccn1)(c1ccc(Br)cc1)c1ccc(Br)cc1,inactive: -7.9%
12,CN(C)C1(CNC(=O)c2ccc(Cl)c(S(N)(=O)=O)c2)CCCCC1,inactive: -4.47%
13,COC(=O)C1(C)COP(=O)(Nc2ccccc2)OC1 (configuration not stated),inactive: -1.25%
14,O=[N+]([O-])c1cccc(NC2=NCC(CBr)S2)c1 (configuration not stated),inactive: -0.858%
15,O=C(O)CNc1ccc([As](=O)(O)O)cc1,inactive: -3.72%
16,CC(C)(C)C(=O)NC(Sc1ccncn1)C(Cl)(Cl)Cl (configuration not stated),inactive: 32.6%
17,O=C(Nc1cc([As](=O)(O)O)ccc1O)c1ccccc1,inactive: 1.91%
18,O=P1(N(CCCl)CCCl)OCCCS1 (configuration not stated),inactive: -2.08%
19,CC(C)c1nc(Nc2ccccc2)n(P(=O)(N(C)C)N(C)C)n1,inactive: -0.877%
20,CC(C)=N/N=C(\N)N[N+](=O)[O-],inactive: -3%
21,CN(C)C(=O)OCCc1n(C)cc[n+]1C,inactive: -0.99%
22,CC1CCN(C(=O)Oc2c(Cl)cc(Cl)c3cccnc23)CC1,inactive: -1.19%
23,c1cc(-c2nn[nH]n2)ccc1-c1nn[nH]n1,inactive: -0.983%
24,Nc1ccc([As](=O)(O)c2ccc(N)cc2)cc1,inactive: -0.47%
25,CCN(/C(=N/P(=O)(N1CCOCC1)N1CCOCC1)N1CCOCC1)c1ccc(OC)cc1,inactive: 0.663%
26,O=[N+]([O-])c1cccc2n[nH]nc12,inactive: 2.39%

row,SMILES,inhibition
1,CC(=O)N1C2C3N(C(C)=O)C1C1N(C(C)=O)C(C(N1C(C)=O)N3C(C)=O)N2C(C)=O,inactive: 0.226%
2,Cc1ccc(NP(=O)(Oc2ccccc2)Oc2ccccc2)nc1,inactive: -4.91%
3,CCc1nc2c(n1)c1c(non1O)c1c2no[n+]1[O-],inactive: 10.6%
4,O=[N+]([O-])c1cc([N+](=O)[O-])c(CCNc2ccccc2)c([N+](=O)[O-])c1,inactive: 3.73%
5,COc1ccc(C2=NCC(CBr)S2)cc1 (configuration not stated),inactive: -3.57%
6,O=[N+]([O-])C1C(O)C(O)C([N+](=O)[O-])C(O)C1O (configuration not stated),inactive: 0.548%
7,Nc1cc(N)c2nonc2c1[N+](=O)[O-],inactive: 7.16%
8,Oc1ccccc1CNc1ccccn1,inactive: -1.67%
9,O=C(NC(Sc1ccncn1)C(Cl)(Cl)Cl)c1ccccc1 (configuration not stated),inactive: 27.6%
10,COc1ccccc1OP(=O)(Nc1ccc(C)cn1)Oc1ccccc1OC,inactive: -4.09%
11,Cc1ccc(OP(=O)(Nc2nccs2)Oc2ccc(C)cc2)cc1,inactive: 0.667%
12,CN1CCCC(OC(=O)C(c2ccccc2)c2ccccc2)C1 (configuration not stated),inactive: -32.8%
13,Clc1ccc(Cl)c(NC2=NCC(CBr)S2)c1 (configuration not stated),inactive: 1.83%
14,NC(=O)c1cc([N+](=O)[O-])cc([N+](=O)[O-])c1N,inactive: -1.22%
15,Cc1ccc(N/C(=N/P(=O)(N2CCOCC2)N2CCOCC2)N2CCOCC2)cc1,inactive: -2.36%
16,CCN(N=Nc1nonc1N)c1nonc1N,inactive: 1.55%
17,Nc1cccc2ccc([As](=O)(O)O)cc12,inactive: 24%
18,Cc1cc(SC(NC(=O)c2ccc(F)cc2)C(Cl)(Cl)Cl)ncn1 (configuration not stated),inactive: -2.23%
19,CCOP(=O)(Nc1ccccc1)OCC,inactive: 0.611%
20,Cc1ccc(NP(=O)(Oc2ccccc2F)Oc2ccccc2F)nc1,inactive: -1.51%
21,CC(=O)Nc1ccc([As](=O)(O)O)cc1,inactive: 6.61%
22,O=C(O)c1ccccc1[As](=O)(O)O,inactive: 1.31%
23,CCCC1OP(N)(=O)OCC1CC (configuration not stated),inactive: -2.12%
24,O=P(Nc1nc2ccc(Cl)cc2s1)(c1ccccc1)c1ccccc1,inactive: 0.771%
25,CN(C)P(=O)(N(C)C)n1c(Nc2ccccc2)nnc1-c1ccccc1,inactive: -1.33%
26,CC(C)NC(=O)NP(=O)(Oc1ccccc1)Oc1ccccc1,inactive: 33.7%

row,SMILES,inhibition
1,O=C(OC1CN2CCC1CC2)c1cccc2[nH]cnc12 (configuration not stated),inactive: 0.138%
2,O=[N+]([O-])c1cc([N+](=O)[O-])c(-c2ccn[nH]2)s1,inactive: 3.66%
3,COC(=O)C1(C)COP(=O)(N2CCCCCC2)OC1 (configuration not stated),inactive: -0.606%
4,ClCCSc1nnc(-c2cccnc2)o1,inactive: -0.82%
5,Cc1ccc2nc3c(c(C)c2c1)CC(C(Cl)Cl)S3 (configuration not stated),inactive: -0.622%
6,Cc1ccc(OP(=O)(Nc2ccc([N+](=O)[O-])cn2)Oc2ccc(C)cc2)cc1,inactive: -2.21%
7,O=[As](O)(c1ccc(O)cc1)c1ccccc1O,inactive: -27.6%
8,C[As](=O)(O)c1cccc(C(=O)O)c1,inactive: -3.47%
9,O=[N+]([O-])c1ccc(-c2cc([N+](=O)[O-])c(O)c([N+](=O)[O-])c2)cc1,inactive: 16.8%
10,COc1cc(C(=O)NCC2(N3CCOCC3)CCCCC2)ccc1OCC(C)C,inactive: -1.73%
11,COc1ccc(N/C(=N/P(=O)(N2CCOCC2)N2CCOCC2)N2CCOCC2)cc1,inactive: -1.46%
12,O=[N+]([O-])c1cc(Oc2ccc([N+](=O)[O-])cc2C(F)(F)F)cc([N+](=O)[O-])c1,inactive: 4.62%
13,COc1ccc2nc(NP(=O)(c3ccccc3)c3ccccc3)sc2c1,inactive: -1.47%
14,COc1cc(I)ccc1[As](=O)(O)O,inactive: 6.76%
15,O=P1(N(CCCl)CCCl)OCCCN1CCCl (configuration not stated),inactive: -0.269%
16,O=P1(N(CCCl)CCCl)Nc2ccccc2N1,inactive: 1.45%
17,O=C(OC1CN2CCC1CC2)C12CC3CC(CC(C3)C1)C2 (configuration not stated),inactive: 1.17%
18,Cc1cc(=O)[nH]c(N[N+](=O)[O-])n1,inactive: -1.67%
19,Cc1c2c(nc3ccccc13)SC(C(Cl)Cl)C2 (configuration not stated),inactive: 9.35%
20,CCC(C)N(CC(C)C)C(=S)SC(NC(C)=O)C(Cl)(Cl)Cl (configuration not stated),inactive: 18.9%
21,CCOC(=O)c1ccc(NC(=O)C(C)(CCl)SC)cc1 (configuration not stated),inactive: -1.44%
22,O=C(OC1CN2CCC1CC2)c1cccc([N+](=O)[O-])c1 (configuration not stated),inactive: -2.31%
23,CSc1ccc(Nc2c([N+](=O)[O-])cc([N+](=O)[O-])cc2[N+](=O)[O-])cc1,inactive: 13.9%
24,O=C(Nc1ccncc1[N+](=O)[O-])c1ccc([N+](=O)[O-])cc1[N+](=O)[O-],inactive: 2.01%
